Values quoted from earlier work in patent publication US20030022247A1, “Substance which inhibits binding of information transfer molecule for 1175-tyrosine phosphorylated KDR/FLK-1 and usages of the same” (priority 2000, published 2003).

Amino acid sequences for entries named in this document (tags omitted). Residues count along the entry.
UniProt P35968, 20-1356: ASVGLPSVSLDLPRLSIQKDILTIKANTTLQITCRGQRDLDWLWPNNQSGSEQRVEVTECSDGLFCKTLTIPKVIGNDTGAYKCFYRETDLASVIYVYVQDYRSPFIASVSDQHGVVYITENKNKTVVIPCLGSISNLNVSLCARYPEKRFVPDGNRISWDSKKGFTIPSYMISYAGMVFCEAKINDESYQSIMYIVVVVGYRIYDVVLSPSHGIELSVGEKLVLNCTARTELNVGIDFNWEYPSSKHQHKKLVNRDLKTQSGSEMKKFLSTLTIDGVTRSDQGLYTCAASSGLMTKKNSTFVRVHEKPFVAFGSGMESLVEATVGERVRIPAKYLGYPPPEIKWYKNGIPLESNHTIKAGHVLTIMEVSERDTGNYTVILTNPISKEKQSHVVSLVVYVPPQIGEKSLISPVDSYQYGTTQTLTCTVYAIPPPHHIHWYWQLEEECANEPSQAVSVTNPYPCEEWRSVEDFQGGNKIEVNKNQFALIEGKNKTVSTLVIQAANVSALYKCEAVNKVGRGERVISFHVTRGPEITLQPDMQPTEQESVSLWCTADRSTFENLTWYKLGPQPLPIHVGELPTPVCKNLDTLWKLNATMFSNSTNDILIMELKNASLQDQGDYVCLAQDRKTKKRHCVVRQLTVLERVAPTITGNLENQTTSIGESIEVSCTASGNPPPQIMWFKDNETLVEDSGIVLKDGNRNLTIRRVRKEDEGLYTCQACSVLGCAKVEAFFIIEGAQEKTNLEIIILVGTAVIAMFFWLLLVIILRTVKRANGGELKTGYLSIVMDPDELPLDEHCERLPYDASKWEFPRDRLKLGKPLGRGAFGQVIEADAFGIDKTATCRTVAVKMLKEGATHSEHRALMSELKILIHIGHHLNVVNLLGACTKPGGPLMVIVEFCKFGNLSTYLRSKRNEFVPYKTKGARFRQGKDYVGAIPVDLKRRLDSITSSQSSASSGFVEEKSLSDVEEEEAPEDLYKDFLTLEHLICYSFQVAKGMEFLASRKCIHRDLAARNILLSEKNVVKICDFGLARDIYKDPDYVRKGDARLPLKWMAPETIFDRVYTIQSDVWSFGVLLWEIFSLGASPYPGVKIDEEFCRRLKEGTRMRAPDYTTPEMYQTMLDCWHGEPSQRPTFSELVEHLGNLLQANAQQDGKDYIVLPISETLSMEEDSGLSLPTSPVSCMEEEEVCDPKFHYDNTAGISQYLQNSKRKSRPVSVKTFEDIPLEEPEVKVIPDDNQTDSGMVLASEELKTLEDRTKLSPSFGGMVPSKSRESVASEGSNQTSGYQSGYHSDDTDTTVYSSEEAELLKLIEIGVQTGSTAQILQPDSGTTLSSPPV

Molecular target: KDR/Flk-1 (Homo sapiens, UniProt P35968)
Details: read-out: KD value; cited from earlier work

vascular endothelial growth factor [VEGF]
Kd: 0.075 nM
